Reference: PMC10012886 (mAbs, 2023)

Molecular target: T1, histidine-tagged human PDL-2 extracellular domain (PDL2-His) (human, UniProt Q9BQ51 20-220)
T1 sequence: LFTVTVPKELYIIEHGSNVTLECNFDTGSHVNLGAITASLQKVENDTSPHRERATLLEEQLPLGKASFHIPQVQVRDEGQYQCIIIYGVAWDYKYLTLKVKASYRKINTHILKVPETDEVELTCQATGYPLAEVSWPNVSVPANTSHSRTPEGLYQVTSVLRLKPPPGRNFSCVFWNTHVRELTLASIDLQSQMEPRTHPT
Assay: ELISA

binding result: binds
B1: fusion protein of human Fc with human PD-1 extracellular domain (PD1-hFc) (Fc fusion)
chain: LDSPDRPWNPPTFSPALLVVTEGDNATFTCSFSNTSESFVLNWYRMSPSNQTDKLAAFPEDRSQPGQDCRFRVTQLPNGRDFHMSVVRARRNDSGTYLCGAISLAPKAQIKESLRAELRVTERRAEVPTAHPSPSPRPAGQFQTLV
